# Only a part is listed here, and it is no random draw. Activity calls are given as the source filed them. Rule as the data show it: active = potentiation above about 50%; inconclusive = mostly about 30% to 49%; inactive = weaker than that.
# Chains of the proteins cited; added tags and fusions are not shown.
# UniProt P14416, whole entry: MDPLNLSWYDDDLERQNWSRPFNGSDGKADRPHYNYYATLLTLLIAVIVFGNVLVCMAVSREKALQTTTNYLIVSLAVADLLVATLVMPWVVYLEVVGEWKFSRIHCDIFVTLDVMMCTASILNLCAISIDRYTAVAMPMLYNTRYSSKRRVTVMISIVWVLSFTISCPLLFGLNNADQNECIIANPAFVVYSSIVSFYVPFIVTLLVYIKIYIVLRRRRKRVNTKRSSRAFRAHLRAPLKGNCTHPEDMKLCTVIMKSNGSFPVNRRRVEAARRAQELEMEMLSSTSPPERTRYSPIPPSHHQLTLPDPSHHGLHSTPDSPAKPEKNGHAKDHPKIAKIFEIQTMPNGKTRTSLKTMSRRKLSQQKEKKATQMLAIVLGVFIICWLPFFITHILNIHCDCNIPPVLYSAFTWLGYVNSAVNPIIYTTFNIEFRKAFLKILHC
# Target: D(2) dopamine receptor (Homo sapiens) (UniProt P14416)
# Assay: Beta-Arrestin HTS for Positive Allosteric Modulators of the Human D2 Dopamine Receptor: Potentiators
# Details: DiscoveRx D2 beta-arrestin cells, luminescence, 90 min; stronger effect = higher value; 100% = 57 uM dopamine signal
# From the text: There is great interest in identifying small molecule ligands for G-protein coupled receptors (GPCRs) as nearly 50% of all FDA-approved drugs target these important receptor proteins. […] Amongst the dopamine receptors (DARs), the D2 is arguably one of the most validated drug targets in neurology and psychiatry. For instance, all receptor-based antiparkinsonian drugs primarily work via stimulating the D2 DAR, whereas all FDA-approved antipsychotic agents are antagonists of this receptor. The D2 DAR is also therapeutically targeted in other disorders such as restless legs syndrome, tardive dyskinesia, Tourette's syndrome, and hyperprolactinemia.
# To this end, a miniaturized qHTS screen was developed to be screened against the Molecular Libraries Small Molecule Repository (MLSMR). This assay seeks to identify potentiators against the D2 DAR.
# NIH Molecular Libraries Probe Production Network [MLPCN] […]
# DiscoveRx D2 cells were thawed from frozen stock and seeded at 2,100 cells/ 3 uL/well media (DiscoveRx Plating Reagent 2) with MultiDrop Combi dispenser (Thermo Scientific, Logan, UT) onto white tissue culture treated 1536-well Aurora plates (Brooks Automation, Chelmsford, MA) and allowed to attach overnight at 37 deg C, 5% CO2. […] The plates were incubated at ambient temperature for 1 hour and then the luminescent signal was read on ViewLux plate reader (PerkinElmer, Waltham, MA).
row,SMILES,potentiation
1,CCC(=O)N(c1ccccc1)C1(COC)CCN(CCc2cccs2)CC1,inactive: -29.3%
2,CCC(=O)N(c1ccccc1)C1(COC)CCN(CCn2nnn(CC)c2=O)CC1,inactive: -7.25%

# Reference: PubChem BioAssay AID624464 (National Center for Advancing Translational Sciences (NCATS), 2012)
